The values below are quoted from earlier work in US11701433B2, “Complexes for delivery of antigenic peptides” (The Regents of the University of Michigan, priority 2017, dated 2023).

For this data set, the system named is HNSCC cells. To be noted: 5 μg/ml cetuximab alone; cited from earlier work.

In the case of “cetuximab: EGFR-targeted antibody that activates antibody-dependent cytotoxicity (ADCC)”, the cytotoxic effects result is “did not demonstrate any cytotoxic effects”.
